Tested on: migraine headache

| Substance | effect on frequency of headaches after 4-6 weeks (Example 1 patient, riboflavin 200 mg bid, magnesium oxide 500 mg tid and coenzyme Q10 100 mg bid prescribed together) | benefit as prophylactic agent for migraines (Example 2 patient, history) | benefit for prophylaxis (Example 5 patient, history) |
| --- | --- | --- | --- |
| magnesium oxide | did not affect the frequency |  |  |
| magnesium |  | without benefit | partially helpful |

From patent US20250339461A1 (priority 2024, published 2025)
